Experimental data reported in paper PMC9318729, “Scorpion Peptide Smp24 Exhibits a Potent Antitumor Effect on Human Lung Cancer Cells by Damaging the Membrane and Cytoskeleton In Vivo and In Vitro” (Toxins, 2022).

System: A549 cells
Assay: Effect of pathway inhibitors on Smp24-induced cytotoxicity (MTT and LDH release)
Type: cell-based, human
Conditions: inhibitor pre-incubated 30 min (40 μM Necrostatin-1, 1 μM Cyclosporine A), then 5 μM Smp24 for 12 h
Experimental: MTT assay was performed to analyze cellular viability as previously reported by us. […] To determine which signal pathway is primarily responsible for the cytotoxic effects of Smp24 on A549 cells, various inhibitors including 40 μM Necrostatin-1, 40 μM Z-DEVD-FMK, and 1 μM cyclosporine A were pre-incubated with A549 cells for 30 min before 5 μM Smp24 was incubated with the cells for 12 h. After incubation, 10 µL MTT (5 mg/mL) was added before incubation for 4 h at 37 °C in the dark. Subsequently, the cell medium was discarded, and 200 µL DMSO was applied into each well before the absorbance value at 490 nm was determined via the microplate reader (Tecan Company, Männedorf, Switzerland). Cell proliferation was further detected by the BeyoClick™ EdU cell proliferation kit with Alexa Fluor 488 (Beyotime Institute of Biotechnology, Shanghai, China) according to the protocol of manufacturer. […] Then, the cells were incubated with EdU for 2 h and stained with Alexa Fluor 488 for 30 min in the dark before cell fluorescence intensity was measured by flow cytometry (Becton Dickinson Company, Franklin Lakes, NJ, USA). […]
The LDH release assay was carried out with a commercial kit (Beyotime Institute of Biotechnology, Shanghai, China) following the manufacturer’s manual. […] Thereafter, a microplate reader (Tecan Company, Männedorf, Switzerland) was used to measure the absorbance value at 490 nm. […]

## Cyclosporine A
  Inhibition of Smp24-induced cytotoxicity and necrosis of A549: cannot inhibit
